From patent publication US7294630B2, “Piperazinyl piperidine tachykinin antagonists” (SmithKline Beecham Corporation, priority 2000, dated 2007)

Protein sequences, listed by entry. Tags and fused reporters are not part of them.
UniProt P25103, whole entry: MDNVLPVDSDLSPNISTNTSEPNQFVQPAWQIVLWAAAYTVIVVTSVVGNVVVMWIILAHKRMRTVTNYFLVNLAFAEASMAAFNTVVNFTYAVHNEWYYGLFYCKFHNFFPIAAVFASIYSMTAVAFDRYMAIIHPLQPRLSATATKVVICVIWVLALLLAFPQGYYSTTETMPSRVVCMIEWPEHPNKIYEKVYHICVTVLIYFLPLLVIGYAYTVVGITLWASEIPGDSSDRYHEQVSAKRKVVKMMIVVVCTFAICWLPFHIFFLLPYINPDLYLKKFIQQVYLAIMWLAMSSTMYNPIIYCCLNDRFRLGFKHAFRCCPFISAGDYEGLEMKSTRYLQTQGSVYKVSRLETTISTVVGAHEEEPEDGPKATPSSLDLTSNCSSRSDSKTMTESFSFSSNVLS

Molecular target: T1, recombinant human NK1 receptors expressed in Chinese Hamster Ovary (CHO) cell membranes (Homo sapiens, UniProt P25103)
T1 construct: expressed in transfected cells; host or cells: Chinese Hamster Ovary (CHO) cells, membrane preparation
Assay: NK1-receptor binding affinity, displacement of [3H]-substance P
Conditions: average of at least two determinations, [3H]substance P displacement, read-out: pki (negative logarithm of the inhibition constant Ki) (converted)
Protocol: NK1-receptor binding affinity has been determined in vitro by the compounds' ability to displace [3H]—substance P (SP) from recombinant human NK1 receptors expressed in Chinese Hamster Ovary (CHO) cell membranes.
CHO cell membranes were prepared by using a modification of the method described by Dam T and Quirion R (Peptides, 7:855-864, 1986). Thus ligand binding was performed in 0.4 ml of 50 mM HEPES, pH 7.4, containing 3 mM MnCl2, 0.02% BSA, 0.5 nM [^3H]Substance P (30÷56 Ci/mmol, Amersham), a final membrane concentration of 25 μg of protein/ml, and the test compounds. The incubation proceeded at room temperature for 40 min. Non-specific binding was determined using excess of Substance P (1 μM) and represents about 6% of the total binding.
The affinity of the compound of the invention for NK1 receptor was determined using the NK1-receptor binding affinity method measuring in vitro by the compounds' ability to displace [3H]—substance P (SP) from recombinant human NK1 receptors expressed in Chinese Hamster Ovary (CHO) cell membranes. The affinity values are expressed as negative logarithm of the inhibition constant (Ki) of displacer ligands (pKi).

In the case of `CC(=O)N1CCN([C@H]2CCN(C(=O)N(C)[C@H](C)c3cc(C(F)(F)F)cc(C(F)(F)F)c3)[C@@H](c3ccc(F)cc3C)C2)CC1.Cl` [Example 3, 4-(S)-(4-Acetyl-piperazin-1-yl)-2-(R)-(4-fluoro-2-methyl-phenyl)-piperidine-1-carboxylic acid, [1-(R)-(3,5-bis-trifluoromethyl-phenyl)-ethyl]-methylamide hydrochloride], the Ki is reported as 0.0513 nM.
